Experimental data published in article PMC8890769.

Molecular target: RBX1 (human (endogenous in U2OS)) (UniProt P62877)
Assay: proximity ligation

ELOF1-TY1 (from UniProt P60002 1-83) (natural protein)
cells with an increased PLA signal at sites of local DNA damage (% of the cells): 50
